Measured values published in patent US12168639B2 (priority 2013, dated 2024).

What was measured:
[1] = test system: mice; assay: Metabolic cage (CLAMS) studies; conditions: 5 mg/kg per day IP
Experimental: Mice were studied during daily IP injections of 5 mg/kg DNPME or vehicle. Comprehensive Animal Metabolic Monitoring System (Columbus Instruments, Columbus, OH) was used to measure oxygen uptake and carbon dioxide production, daily caloric intake and energy expenditure, respiratory exchange ratio, and activity throughout the day.

[2] = test system: rats; assay: 50% lethal dose (LD50) determination
Experimental: (§1) For the acute toxicity studies, rats were treated with an IP injection of DNPME in 100% DMSO at doses 1, 2.5, 5, 10, 25, 50, 100, and 200 mg/kg body weight. Rectal temperature was measured with a microprobe thermometer (Physitemp Instruments, Clifton, NJ) at intervals up to 2 hours after injection of the drug. Rectal temperature was measured weekly in a separate group of rats injected daily with DNPME or vehicle for 6 weeks. A separate group of rats were injected with increasing doses of DNP or DNPME in 100% DMSO to determine the 50% lethal dose (LD50). The 50% lethal dose was taken to be the dose at which 50% of rats died within 24 hours of treatment.

[3] = test system: chow-fed rats; assay: Six weeks of daily treatment in chow-fed rats; conditions: six weeks daily 5 mg/kg vs vehicle
Experimental: as §1
To assess renal and hepatic toxicity, a group of catheterized rats was treated with an intraperitoneal (IP) injection of DMSO vehicle or 1, 2.5, 5, 10, 25 50, 100, or 200 mg/kg DNPME in DMSO daily. After five days, the rats were sacrificed and plasma obtained from the intravenous catheter. The COBAS Mira Plus (Roche Diagnostics, Indianapolis, IN) was used to measure plasma alanine aminotransferase (ALT), aspartate aminotransferase (AST), and blood urea nitrogen (BUN). Plasma creatinine was measured by liquid chromatography/mass spectrometry/mass sprectrometry (LC/MS/MS). 24 hour creatinine clearance was measured by housing rats treated with DNPME or vehicle in metabolic cages for 24 hours, collecting the urine, and measuring urine creatinine concentration by LC/MS/MS.
Liver and kidney samples were prepared and stained with hematoxylin & eosin, and analyzed (Kleiner et al., 2005, Hepatology 41:1313-1321).

COc1ccc([N+](=O)[O-])cc1[N+](=O)[O-]
whole body oxygen consumption, carbon dioxide production, energy expenditure, respiratory quotient, or activity [1]: No effects
LD50 dose relative to that of DNP ([2]; death within 24 hours of treatment): almost tenfold higher
therapeutic index (LD50/ED50) ([2]; rat, in vivo): 70
liver or renal function tests [3]: no differences
liver or renal histology [3]: no differences
rectal temperature [3]: no differences

This is a selection: effects in other tests are not listed, and their absence says nothing.
